# Antibody variant affinities, Ab-14 light chain, assay B

The target is the same throughout: PDVDLGDISGINAS, from the HR2 region of SARS-CoV-2 spike.

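The starting antibody came from a phage panning campaign against this peptide. The variants were designed computationally from a first round of random CDR variants and then made and measured. Several design methods are mixed in this list. AlphaSeq pools MATa yeast showing the antibodies with MATalpha yeast showing the peptide. Binding brings cells together so that they mate, and sequencing counts the barcode pairs among the diploids. Read counts were normalised to the haploid input and turned into Kd by a linear fit to BCL2-family pairs of known affinity, for each replicate. The assay was run in six technical replicates.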

Parent scFv Ab-14: VH joined to VL by a (GGGGS)3 linker. Changes lie in the light chain CDRs alone.
VH: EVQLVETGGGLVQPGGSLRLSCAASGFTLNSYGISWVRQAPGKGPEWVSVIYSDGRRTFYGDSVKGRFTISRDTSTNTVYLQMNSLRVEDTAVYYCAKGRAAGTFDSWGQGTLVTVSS
VL: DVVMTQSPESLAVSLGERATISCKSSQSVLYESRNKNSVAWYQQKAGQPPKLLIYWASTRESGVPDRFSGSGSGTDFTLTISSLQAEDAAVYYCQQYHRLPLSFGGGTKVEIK

Variants are written as CDR1, CDR2 and CDR3 of the light chain (limits as in the source). Parent: KSSQSVLYESRNKNSVA, WASTRES, QQYHRLPLS.
The Kd shown is the geometric mean over detected replicates; a lower Kd is a better binder.
A pair that was not seen in any replicate is written "nd"; this usually means weak binding, but a binder can also be missed.
Of ten entries with the parent sequence, four were seen in most replicates (averages 2.2 nM to 240 nM), three in one and three in none, so single entries are noisy.
The range of this assay differs from that of the first round, and the authors advise against merging the two.
The authors averaged sequences with at least three values out of six and counted those with two or fewer as poor binders.
As a blank, each scFv also met three strains without target: over all light chain designs, 4% of these pairings were detected, typically at 430 nM and seldom below 38 nM.

CDR-L1	CDR-L2	CDR-L3	Kd	replicates with signal
TISQMSTMFSQSINNVA	EVSTREE	QQYDRLPLA	21 nM	6/6
KLLNSTLYESRQKNSVA	WASTRES	QQYHRLPLS	95 nM	4/6
KVSQSVLYESHNKNSVA	NASTRMS	QQYHRLPLS	2.0 nM	6/6
KWSCSHLYDSPNKNSVA	WASTREM	QQYHRLPLS	810 nM	3/6
SMFEKEYEELQPENNIA	DATERMV	QQYFRLPLL	8.7 nM	6/6
MLDNCQEGYYQKNNNVA	EMNARMY	QQYGRLPLM	22 nM	6/6
KLSISHQVESINKSNVA	EMVTREY	QQYDRLPLS	73 nM	6/6
MISQLWNMGSFAINSVA	QASLRNE	QQYDRLPLT	49 nM	3/6
KMQGSVMMQSRNDNSVA	DASTREE	QQYHRLPLS	870 pM	6/6
KLRQSTKYESRNQNSVA	SASTRES	QQYHRLPLS	2.5 nM	6/6
IIGQSMLYESATHNSIA	QTSTREE	QQYHHLPLS	3.2 nM	6/6
TIGQVMHYESENKNSVA	QTSTREE	QDYHRLPLS	6.9 nM	6/6
TISMVMNHMTREKNNVA	NMDMREE	QQYDRLPLS	980 pM	6/6
KQSQSVLAESRNKNSVA	MASTRES	QQYHRLPLS	3.7 nM	6/6
KLQQVTGYESYVRNSVA	QMSTRAE	QDYNRLPLS	2.9 nM	6/6
KVSFSVLLESRNKNSVA	EASTRES	QQYHRLPLS	9.7 nM	5/6
KAMQMVMQESRNKNSVA	NASTRMQ	QQYHRLPLS	870 pM	6/6
SLTNETDGNYGRNNSVA	NAEELMT	QAYFRLPIT	32 nM	4/6
TIQQMMSLFSQTINNVA	EVSLREK	QQYDRLPLS	9.9 nM	6/6
QLAVERGQEYKAGAAIA	GNTEKLH	QQYAMLPLS	28 nM	6/6
KLSPSEQYESRNKNSVA	HSSERES	QQYHRLPLS	950 pM	6/6
HVSEMIFAQSKMRNSVA	ENNTREA	QQYDRLPLS	100 nM	1/6
KVSQSVLYENRNKNSVA	NASTRES	QQYHRLPLS	290 pM	6/6
KFSQSTLYESRNFNSVA	WASTRES	QQYHRLPLS	6.4 nM	6/6
KLQGSNLYGSRNLNSVA	KASTRLQ	QQYHRLPLS	9.9 nM	6/6
KLSQSQLYESRNKNSVA	NGSTRES	QDYHRLPLS	630 pM	6/6
KLSWSVELESRLKNSVA	NASTREW	QQYHRLPLS	3.5 nM	6/6
NLSGMTAHESVKSKNVA	ERSTREE	QQYNRLPLS	2.6 nM	6/6
KLTMVTGHMSMSRNNVA	EMVTREN	QQYDRLPLS	7.2 nM	1/6
KLYDMAALTMNNIRNVA	DNDTRVD	QQYHRLPLS	2.6 nM	6/6
KLSQSVQYESRNKNNVA	HASTRES	QQYHRLPLS	860 pM	6/6
HVSSMDMHDGGIMHSVA	DTKITER	QQYMRLPLS	1.7 nM	6/6
KSSQFVLYESRNKNSVA	WASTRSS	QQYHRLPLS	nd	0/6
IVSQLMLWGMHAKNSIA	EAEMRLN	QQYHRLPLF	nd	0/6
MMSQVTGQGQRHRNNVA	QTSEREP	QQYDRLPLI	9.5 nM	6/6
MLSQMTGLGMKASNSVA	QASMRFE	QQYHRLPLI	20 nM	6/6
KSPQSVLYESRNKNSVA	NASTRED	QSYHRLPLS	2.1 nM	6/6
IFSQGVMVGWLTRNSVA	NSETREK	QQYDRLPLS	6.3 nM	6/6
KTSQSVLFEPRNKNSVA	DASTRES	QQYHRLPLS	2.7 nM	6/6
KSSQSDLYASRNKNSVA	WASTRES	QQYHRLPLS	7.0 nM	6/6
KFLQSQEYESRNKNSVA	HASTRED	QQYHCLPLS	6.3 nM	6/6
KLSQQVLYESRNKNSVA	NASTREQ	QQYHRLPLS	160 pM	6/6
TLGQSVLMESRNKNNVA	QMSTREK	QQYDRLPLS	960 pM	6/6
KLPQSVGYESRNKNSVA	DASTRES	QQYHRLPLS	870 pM	6/6
KSSQSGLYESRNKNSVA	WASTREQ	QSYHRLPLS	320 nM	3/6
KLSQSVLYESRNKNSVA	HASTRMS	QQYHRLPLS	1.5 nM	6/6
HMSQVTMYGYWAKNSVA	QTSTREE	QQYDRLPLS	6.7 nM	6/6
KLTMITGTEKVKGNNVA	EMETRER	QQYNRLPLA	2.9 nM	6/6
KISQMFYYESINTNSVA	QKSTREE	QDYHRLPLS	8.4 nM	6/6
KLSQSCLYESRNKNSVA	NASTRCS	QQYHRLPLS	2.9 nM	6/6
KLQMSAEYGSRNKNSVA	SASQRES	QQYHRLPLS	460 pM	6/6
KSSQNVLYESRNKNSIA	WAQTRES	QQYHRLPLS	62 nM	4/6
KSSQSVLDESTNKNSVA	EASTRES	QQYFRLPLS	2.0 nM	6/6
KLSQSQLYESRNKNSVA	NASTRYS	QQYHRLPLS	690 pM	6/6
KFSQSELYESRQKNSVA	NASQRES	QQYHRLPLS	3.7 nM	5/6
KSSQSVLYMSSNFNSVA	DASWRES	QQYHRLPLS	1.9 µM	2/6
KISMTYRYEQQASNSIA	EMTTREE	QSYHRLPLS	420 nM	2/6
KSSQSVLYESRNKNSVA	WASTRIS	QQYHRLHLS	nd	0/6
HLSDTVMQGSVYRNSVA	QESTRAD	QQYHRLPLS	1.3 nM	6/6
KLPQSVLYESRNKNSVA	AASTRES	QQYHRLPLS	530 pM	6/6
KSSQSMLGESRNKNSVA	DASTRES	QQYHRLPLS	810 pM	6/6

The closing 6 entries, repeated:

CDR-L1	CDR-L2	CDR-L3	Kd	replicates with signal
KSSQSVLYMSSNFNSVA	DASWRES	QQYHRLPLS	1.9 µM	2/6
KISMTYRYEQQASNSIA	EMTTREE	QSYHRLPLS	420 nM	2/6
KSSQSVLYESRNKNSVA	WASTRIS	QQYHRLHLS	nd	0/6
HLSDTVMQGSVYRNSVA	QESTRAD	QQYHRLPLS	1.3 nM	6/6
KLPQSVLYESRNKNSVA	AASTRES	QQYHRLPLS	530 pM	6/6
KSSQSMLGESRNKNSVA	DASTRES	QQYHRLPLS	810 pM	6/6

Values reported by Li et al. 2023, doi:10.1038/s41467-023-39022-2 (FLAb copy).